# Antibody variant affinities, Ab-14 heavy chain, assay 1

Values reported by Engelhart et al. 2022, doi:10.1038/s41597-022-01779-4 (FLAb copy).

Target: peptide PDVDLGDISGINAS, taken from heptad repeat 2 (HR2) of SARS-CoV-2 spike.

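Phage display of a naive human antibody library on the peptide gave the parent. Variants in AAYL49 differ from the parent at up to three CDR positions; double and triple changes were sampled at random. The scFvs were displayed on barcoded MATa yeast, the peptide on MATalpha yeast. Binding brings cells together so that they mate, and sequencing counts the barcode pairs among the diploids. Each replicate has its own calibration line, from reference interactions of the BCL2 family. Mating was done three times.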

Parent scFv Ab-14: VH joined to VL by a (GGGGS)3 linker. Changes lie in the heavy chain CDRs alone.
VH: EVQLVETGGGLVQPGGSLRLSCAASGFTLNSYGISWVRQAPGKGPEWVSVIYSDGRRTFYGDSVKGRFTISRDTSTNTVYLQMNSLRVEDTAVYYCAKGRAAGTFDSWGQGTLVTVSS
VL: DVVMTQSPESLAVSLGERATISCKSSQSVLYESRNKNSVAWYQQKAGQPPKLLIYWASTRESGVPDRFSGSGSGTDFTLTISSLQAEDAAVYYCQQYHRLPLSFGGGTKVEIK

Changes read parent residue, position, new residue, counted from the first residue of the VH shown.
Values are log10 of the apparent Kd in nM; lower means stronger binding.
The mean shown is taken over the replicates in which the pair was detected.
"nd" means that the variant was in the library but no mating with the target was seen in any replicate; the authors take this as a sign of poor binding, and no number exists.

changes	mean, log10 nM	detected	signal with controls
Y32W/R56K/S107H	4.35	2/3	4/9
G26S/R57D/T58H	nd	0/3	1/9
T28M/R57M/K65R	nd	0/3	0/9
Y32W/F59D/A102K	nd	0/3	0/9
Y32C/S35C/G55L	nd	0/3	4/9
G26E/D54C/F59W	4.96	2/3	2/9
G33E/T58N/A102K	4.46	1/3	1/9
G26M/V50F/D106H	nd	0/3	1/9
G55Y/Y60C/G103D	nd	0/3	1/9
A102K/S107V	4.25	1/3	6/9
N30F/I51Q/D62M	nd	0/3	1/9
G55D/R100V/A101Q	4.52	1/3	1/9
Y32M/I51P/R57M	5.20	2/3	2/9
L29W/G55I/D62A	4.71	1/3	3/9
Y32R/G33Y/G103E	nd	0/3	0/9
G33H/S53P/D106Y	4.45	1/3	0/9
T28E/I51M/K65N	3.74	2/3	4/9
T28W/Y32G/A101N	4.14	1/3	1/9
D62E/S63P/R100A	1.00	3/3	0/9
G26M/V64G/K65E	nd	0/3	2/9
I51P/T58A/T104A	nd	0/3	0/9
F27W/G99M/A102N	nd	0/3	2/9
V50S/F59G/R100W	4.76	1/3	0/9
Y32T/G33F/I34P	4.58	1/3	4/9
S53Q/D62T/S63F	nd	0/3	0/9
G33L/I51C/Y52C	nd	0/3	2/9
R56Q/G99N/F105Y	0.79	3/3	1/9
G26E/T104K/D106R	3.03	1/3	6/9
G33K/G99M/D106T	nd	0/3	0/9
S53G/D54P/G55L	nd	0/3	1/9
Y32E/Y60P/F105S	nd	0/3	1/9
G33W/S35Q/V64K	nd	0/3	0/9
N30Y/Y52R/R56L	4.70	3/3	2/9
V50D/S63I/V64D	nd	0/3	0/9
S35I/G103I/T104R	nd	0/3	0/9
V50M/A101N/F105W	4.28	1/3	1/9
L29R/F59R/D62Y	nd	0/3	1/9
S31Y/T58G/G103A	nd	0/3	3/9
V50D/F59V/G61Y	nd	0/3	0/9
G26I/L29I/A101F	3.89	1/3	0/9
Y60R/K65I/F105C	3.80	1/3	2/9
G55A/D62I	nd	0/3	0/9
N30S/V64Y	nd	0/3	1/9
S63L/A101N/S107I	1.51	3/3	2/9
V50F/I51Q/D54F	nd	0/3	0/9
R57Q/K65P/T104D	4.98	3/3	8/9
G55R/T104K	3.77	2/3	3/9
Y32Q/V50T/I51G	nd	0/3	0/9
V50H/F59L/G61C	nd	0/3	0/9
G55A/Y60L/S107L	4.13	1/3	1/9
Y32V/R57H/F59L	4.16	3/3	2/9
Y32E/S53F/R56E	nd	0/3	0/9
S35Y/S53W	nd	0/3	0/9
L29E/I34Q/S53D	nd	0/3	2/9
S31C/Y32I/V50F	nd	0/3	1/9
Y32N/V50D/R57K	2.67	1/3	1/9
G55S/V64D/G99A	nd	0/3	2/9
T28L/F59L/V64N	3.78	1/3	1/9
I34A/R56N/V64N	4.93	1/3	3/9
R57I/Y60Q/T104I	nd	0/3	1/9
I34L/G61V/G99F	nd	0/3	1/9
I34S/R56I/D106M	nd	0/3	1/9
G33L/I34P/D62K	3.07	1/3	2/9
V64E/A101L/S107K	2.03	3/3	0/9
I34K/S53N/T58V	5.54	1/3	6/9

Repeated from above, the 7 best binders with a signal in all replicates:

changes,"mean, log10 nM",detected,signal with controls
R56Q/G99N/F105Y,0.79,3/3,1/9
D62E/S63P/R100A,1.00,3/3,0/9
S63L/A101N/S107I,1.51,3/3,2/9
V64E/A101L/S107K,2.03,3/3,0/9
Y32V/R57H/F59L,4.16,3/3,2/9
N30Y/Y52R/R56L,4.70,3/3,2/9
R57Q/K65P/T104D,4.98,3/3,8/9

In this assay the parent's reference entry averaged 0.65; its copy inside this library read 4.11 (one replicate of three).
Nonspecific signal, from three strains lacking the peptide, appeared in 15% of pairings of library AAYL49, centred on 4.06 (5% of these signals below 2.83); values are not corrected for it. The control count says in how many pairings with the empty strains this scFv gave a signal.